Results as given in ChEMBL document CHEMBL1287723, “The discovery of new spirocyclic muscarinic M3 antagonists” (Bioorg Med Chem Lett, 2010).

Organism: Homo sapiens
Test: Fraction unbound in human plasma

`Cc1nc(C(=O)N2CCOC3(CCN(Cc4ccc(Cl)cc4)CC3)C2)cs1` gave a fraction unbound of 0.57.
